Experimental data reported in US7507717B2 (Xenome Ltd., priority 2002, dated 2009).

Protein sequences, listed by entry. Tags and fused reporters are not part of them.
UniProt P23975, whole entry: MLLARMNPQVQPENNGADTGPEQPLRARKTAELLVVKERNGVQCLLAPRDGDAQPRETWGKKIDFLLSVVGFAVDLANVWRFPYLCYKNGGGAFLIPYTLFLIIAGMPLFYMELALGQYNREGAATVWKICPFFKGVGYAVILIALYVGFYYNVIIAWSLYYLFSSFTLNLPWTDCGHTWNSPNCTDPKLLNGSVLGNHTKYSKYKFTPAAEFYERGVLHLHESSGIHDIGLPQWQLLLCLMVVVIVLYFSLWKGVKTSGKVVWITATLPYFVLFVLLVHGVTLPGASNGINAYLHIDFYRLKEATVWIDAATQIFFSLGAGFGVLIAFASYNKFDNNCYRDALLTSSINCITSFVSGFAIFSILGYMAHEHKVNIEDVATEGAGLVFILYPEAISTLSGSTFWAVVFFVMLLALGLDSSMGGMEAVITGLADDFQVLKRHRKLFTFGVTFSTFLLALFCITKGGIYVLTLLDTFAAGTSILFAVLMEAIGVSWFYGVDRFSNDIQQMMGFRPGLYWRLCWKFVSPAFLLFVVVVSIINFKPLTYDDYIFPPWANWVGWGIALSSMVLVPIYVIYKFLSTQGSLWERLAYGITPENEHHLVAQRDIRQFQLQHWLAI

Legend:
[1] = molecular target: T1, human noradrenaline transporter (hNET) (Homo sapiens, UniProt P23975); assay: cell-based
T1 construct: expressed in transfected cells; host or cells: COS-7 cells (ATCC), transient transfection with metafectene

[2] = molecular target: T1, human noradrenaline transporter (hNET); assay: biochemical; assay type: binding; conditions: Av IC50 Displacement of 3H-nisoxetine from hNET

SMILES	IC50 [1]	IC50 [2]
COc1ccc(C[C@@H]2NC(=O)CNC(=O)[C@@H]3CSSC[C@H](NC(=O)[C@H](CC(C)C)NC(=O)[C@H](CCCCN)NC2=O)C(=O)N[C@@H](CCCNC(=N)N)C(=O)N2C[C@H](O)C[C@H]2C(=O)N[C@H](C(N)=O)CSSC[C@H](NC(=O)[C@H](CC(C)C)NC(=O)CNC(=O)[C@H](CCCNC(=N)N)NC(=O)[C@@H](N)Cc2ccc(O)cc2)C(=O)N3)cc1 [compound 13]	25.1 nM	14.1 nM
CCCC[C@H](NC(=O)CNC(=O)[C@H](CCCNC(=N)N)NC(=O)[C@@H](N)Cc1ccc(O)cc1)C(=O)N[C@H]1CSSC[C@@H](C(N)=O)NC(=O)[C@@H]2C[C@@H](O)CN2C(=O)[C@H](CCCNC(=N)N)NC(=O)[C@@H]2CSSC[C@H](NC1=O)C(=O)NCC(=O)N[C@@H](Cc1ccc(OC)cc1)C(=O)N[C@@H](CCCCN)C(=O)N[C@@H](CC(C)C)C(=O)N2 [compound 14]	33.1 nM	15.8 nM
CCCC[C@H](NC(=O)CNC(=O)[C@H](CCCNC(=N)N)NC(=O)[C@H](Cc1ccc(O)cc1)NC(=O)[C@@H](N)CCCN)C(=O)N[C@H]1CSSC[C@@H](C(N)=O)NC(=O)[C@@H]2C[C@@H](O)CN2C(=O)[C@H](CCCNC(=N)N)NC(=O)[C@@H]2CSSC[C@H](NC1=O)C(=O)NCC(=O)N[C@@H](Cc1ccc(OC)cc1)C(=O)N[C@@H](CCCCN)C(=O)N[C@@H](CC(C)C)C(=O)N2 [compound 15]	46.8 nM	21.9 nM
COc1ccc(C[C@@H]2NC(=O)CNC(=O)[C@@H]3CSSC[C@H](NC(=O)[C@H](CC(C)C)NC(=O)[C@H](CCCCN)NC2=O)C(=O)N[C@@H](Cc2c[nH]cn2)C(=O)N2C[C@H](O)C[C@H]2C(=O)N[C@H](C(N)=O)CSSC[C@H](NC(=O)[C@H](CC(C)C)NC(=O)CNC(=O)[C@H](CCCNC(=N)N)NC(=O)[C@@H](N)Cc2c[nH]c4ccccc24)C(=O)N3)cc1 [compound 16]	36.3 nM	28.8 nM
CCCC[C@H](NC(=O)CNC(=O)[C@H](CCCNC(=N)N)NC(=O)[C@@H](N)CCCN)C(=O)N[C@H]1CSSC[C@@H](C(N)=O)NC(=O)[C@@H]2C[C@@H](O)CN2C(=O)[C@H](CCCNC(=N)N)NC(=O)[C@@H]2CSSC[C@H](NC1=O)C(=O)NCC(=O)N[C@@H](Cc1ccc(OC)cc1)C(=O)N[C@@H](CCCCN)C(=O)N[C@@H](CC(C)C)C(=O)N2 [compound 17]	61.7 nM	28.2 nM
CC(C)C[C@@H]1NC(=O)[C@H](CCCCN)NC(=O)[C@H](Cc2ccc(O)cc2)NC(=O)CNC(=O)[C@@H]2CSSC[C@H](NC1=O)C(=O)N[C@@H](Cc1c[nH]cn1)C(=O)N1C[C@H](O)C[C@H]1C(=O)N[C@H](C(N)=O)CSSC[C@H](NC(=O)[C@@H](NC(=O)[C@H](C)NC(=O)[C@@H](N)CC(N)=O)C(C)C)C(=O)N2 [compound 124]	–	1350 nM
CC(C)C[C@@H]1NC(=O)[C@H](CCCCN)NC(=O)[C@H](Cc2ccc(O)cc2)NC(=O)CNC(=O)[C@@H]2CSSC[C@H](NC1=O)C(=O)N[C@@H](Cc1c[nH]cn1)C(=O)N1CCCC[C@H]1C(=O)N[C@H](C(N)=O)CSSC[C@H](NC(=O)[C@@H](NC(=O)CNC(=O)[C@@H](N)CC(N)=O)C(C)C)C(=O)N2 [compound 129]	–	1620 nM
CC(C)C[C@@H]1NC(=O)[C@H](CCCCN)NC(=O)[C@H](Cc2ccc(O)cc2)NC(=O)CNC(=O)[C@@H]2CSSC[C@H](NC1=O)C(=O)N[C@@H](Cc1c[nH]cn1)C(=O)N1C[C@H](O)C[C@H]1C(=O)N[C@H](C(N)=O)CSSC[C@H](NC(=O)[C@@H](NC(=O)CNC(=O)[C@H](C)N)C(C)C)C(=O)N2 [compound 130]	–	1660 nM
CCCC[C@H](NC(=O)[C@H](CC(N)=O)NC(=O)[C@@H](N)Cc1ccc(O)cc1)C(=O)N[C@H](C(=O)N[C@H]1CSSC[C@@H](C(N)=O)NC(=O)[C@@H]2CCCN2C(=O)[C@H](Cc2c[nH]cn2)NC(=O)[C@@H]2CSSC[C@H](NC1=O)C(=O)NCC(=O)N[C@@H](Cc1ccc(O)cc1)C(=O)N[C@@H](CCCCN)C(=O)N[C@@H](CC(C)C)C(=O)N2)C(C)C [compound 132]	–	1820 nM
COc1ccc(C[C@@H]2NC(=O)[C@H](Cc3c[nH]cn3)NC(=O)[C@@H]3CSSC[C@H](NC(=O)[C@@H](NC(=O)[C@@H](NC(=O)CNC(=O)[C@@H](N)CC(N)=O)C(C)C)CSSC[C@@H](C(N)=O)NC2=O)C(=O)NCC(=O)N[C@@H](Cc2ccc(O)cc2)C(=O)N[C@@H](CCCCN)C(=O)N[C@@H](CC(C)C)C(=O)N3)cc1 [compound 141]	–	2450 nM
CC(=O)N[C@@H](CC(N)=O)C(=O)NCC(=O)N[C@H](C(=O)N[C@H]1CSSC[C@@H](C(N)=O)NC(=O)[C@@H]2C[C@@H](O)CN2C(=O)[C@H](Cc2c[nH]cn2)NC(=O)[C@@H]2CSSC[C@H](NC1=O)C(=O)NCC(=O)N[C@@H](Cc1ccc(O)cc1)C(=O)N[C@@H](CCCCN)C(=O)N[C@@H](CC(C)C)C(=O)N2)C(C)C [compound 143]	–	2570 nM
CC(C)C[C@@H]1NC(=O)[C@H](CCCCN)NC(=O)[C@H](Cc2ccc(O)cc2)NC(=O)CNC(=O)[C@@H]2CSSC[C@H](NC1=O)C(=O)N[C@@H](Cc1c[nH]cn1)C(=O)N1C[C@H](O)C[C@H]1C(=O)N[C@H](C(N)=O)CSSC[C@H](NC(=O)[C@@H](NC(=O)CNC(=O)[C@@H](N)CC(=O)O)C(C)C)C(=O)N2 [compound 147]	–	3160 nM
CC(C)C[C@@H]1NC(=O)[C@H](CCCCN)NC(=O)[C@H](Cc2ccc(O)cc2)NC(=O)CNC(=O)[C@@H]2CSSC[C@H](NC1=O)C(=O)N[C@@H](Cc1c[nH]cn1)C(=O)N1C[C@H](O)C[C@H]1C(=O)N[C@H](C(N)=O)CSSC[C@H](NC(=O)[C@H](C)NC(=O)CNC(=O)[C@@H](N)CC(N)=O)C(=O)N2 [compound 153]	–	3720 nM
CC(C)C[C@@H]1NC(=O)[C@H](CCCCN)NC(=O)[C@H](Cc2ccc(O)cc2)NC(=O)CNC(=O)[C@@H]2CSSC[C@H](NC1=O)C(=O)N[C@@H](Cc1c[nH]cn1)C(=O)N1C[C@H](O)C[C@H]1C(=O)N[C@H](C(N)=O)CSSC[C@H](NC(=O)[C@@H](NC(=O)[C@H](CC(=O)O)NC(=O)[C@@H]1CCC(=O)N1)C(C)C)C(=O)N2 [compound 154]	–	3980 nM
CC(C)C[C@@H]1NC(=O)[C@H](CCCCN)NC(=O)[C@H](Cc2ccc(O)cc2)NC(=O)CNC(=O)[C@@H]2CSSC[C@H](NC1=O)C(=O)N[C@@H](Cc1c[nH]cn1)C(=O)N1CSC[C@H]1C(=O)N[C@H](C(N)=O)CSSC[C@H](NC(=O)[C@@H](NC(=O)CNC(=O)[C@@H](N)CC(N)=O)C(C)C)C(=O)N2 [compound 158]	–	4680 nM
CCCC[C@@H]1NC(=O)[C@H](Cc2c[nH]cn2)NC(=O)[C@@H]2CSSC[C@H](NC(=O)[C@@H](NC(=O)[C@@H](NC(=O)CNC(=O)[C@@H](N)CC(N)=O)C(C)C)CSSC[C@@H](C(N)=O)NC1=O)C(=O)NCC(=O)N[C@@H](Cc1ccc(O)cc1)C(=O)N[C@@H](CCCCN)C(=O)N[C@@H](CC(C)C)C(=O)N2 [compound 162]	–	6460 nM
CC(C)C[C@@H]1NC(=O)[C@H](CCCNC(=N)N)NC(=O)[C@H](Cc2ccc(O)cc2)NC(=O)CNC(=O)[C@@H]2CSSC[C@H](NC1=O)C(=O)N[C@@H](Cc1c[nH]cn1)C(=O)N1C[C@H](O)C[C@H]1C(=O)N[C@H](C(N)=O)CSSC[C@H](NC(=O)[C@@H](NC(=O)CNC(=O)[C@@H](N)CC(N)=O)C(C)C)C(=O)N2 [compound 177]	–	22900 nM
CC(C)C[C@@H]1NC(=O)[C@H](CCCCN)NC(=O)[C@H](Cc2c[nH]c3ccccc23)NC(=O)CNC(=O)[C@@H]2CSSC[C@H](NC1=O)C(=O)N[C@@H](Cc1c[nH]cn1)C(=O)N1C[C@H](O)C[C@H]1C(=O)N[C@H](C(N)=O)CSSC[C@H](NC(=O)[C@@H](NC(=O)CNC(=O)[C@@H]1CCC(=O)N1)C(C)C)C(=O)N2 [compound 187]	–	91200 nM
CC(C)C[C@@H]1NC(=O)[C@H](CCCCN)NC(=O)[C@H](Cc2ccc(O)cc2)NC(=O)[C@@H](CO)NC(=O)[C@@H]2CSSC[C@H](NC1=O)C(=O)N[C@@H](Cc1c[nH]cn1)C(=O)N1CCC[C@H]1C(=O)N[C@H](C(N)=O)CSSC[C@H](NC(=O)[C@@H](NC(=O)CNC(=O)[C@@H](N)CC(N)=O)C(C)C)C(=O)N2 [compound 188]	–	95500 nM
CC(C)C[C@@H]1NC(=O)[C@H](CCCNC(N)=O)NC(=O)[C@H](Cc2ccc(O)cc2)NC(=O)CNC(=O)[C@@H]2CSSC[C@H](NC1=O)C(=O)N[C@@H](Cc1c[nH]cn1)C(=O)N1C[C@H](O)C[C@H]1C(=O)N[C@H](C(N)=O)CSSC[C@H](NC(=O)[C@@H](NC(=O)CNC(=O)[C@@H]1CCC(=O)N1)C(C)C)C(=O)N2 [compound 189]	–	95500 nM
CC(C)C[C@@H]1NC(=O)[C@H](CCCCN)NC(=O)[C@@H]2Cc3ccccc3CN2C(=O)CNC(=O)[C@@H]2CSSC[C@H](NC1=O)C(=O)N[C@@H](Cc1c[nH]cn1)C(=O)N1CCC[C@H]1C(=O)N[C@H](C(N)=O)CSSC[C@H](NC(=O)[C@@H](NC(=O)CNC(=O)[C@@H](N)CC(N)=O)C(C)C)C(=O)N2 [compound 191]	–	110000 nM
CC(C)C[C@@H]1NC(=O)[C@H](CCCCN)NC(=O)[C@H](Cc2ccc(O)cc2)NC(=O)[C@@H](Cc2ccccc2)NC(=O)[C@@H]2CSSC[C@H](NC1=O)C(=O)N[C@@H](Cc1c[nH]cn1)C(=O)N1CCC[C@H]1C(=O)N[C@H](C(N)=O)CSSC[C@H](NC(=O)[C@@H](NC(=O)CNC(=O)[C@@H](N)CC(N)=O)C(C)C)C(=O)N2 [compound 192]	–	112000 nM
CC(C)C[C@@H]1NC(=O)[C@H](CCCCN)NC(=O)[C@H](CCC(=O)O)NC(=O)CNC(=O)[C@@H]2CSSC[C@H](NC1=O)C(=O)N[C@@H](Cc1c[nH]cn1)C(=O)N1C[C@H](O)C[C@H]1C(=O)N[C@H](C(N)=O)CSSC[C@H](NC(=O)[C@@H](NC(=O)CNC(=O)[C@@H]1CCC(=O)N1)C(C)C)C(=O)N2 [compound 197]	–	191000 nM
CC[C@H](C)[C@@H]1NC(=O)CNC(=O)[C@@H]2CSSC[C@H](NC(=O)[C@H](CC(C)C)NC(=O)[C@H](CCCCN)NC1=O)C(=O)N[C@@H](Cc1c[nH]cn1)C(=O)N1C[C@H](O)C[C@H]1C(=O)N[C@H](C(N)=O)CSSC[C@H](NC(=O)[C@@H](NC(=O)CNC(=O)[C@@H]1CCC(=O)N1)C(C)C)C(=O)N2 [compound 198]	–	214000 nM
